## Ab-14 heavy chain CDR variants: yeast mating affinities

Data: MIT Lincoln Laboratory AlphaSeq set, Engelhart et al. 2022, doi:10.1038/s41597-022-01779-4, as distributed in FLAb.

Target: peptide PDVDLGDISGINAS, taken from heptad repeat 2 (HR2) of SARS-CoV-2 spike.

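Phage display of a naive human antibody library on the peptide gave the parent. AAYL49 was designed without a model: most single CDR substitutions and a random sample of double and triple ones. Affinity was read by AlphaSeq, a pooled yeast mating assay with surface-displayed partners. Mating (16 h, 30 °C) was followed by selection of diploids and sequencing of their barcodes. The ratio of observed to expected reads was calibrated, replicate by replicate, on BCL2-family standards whose Kd was known from biolayer interferometry. Each pool was mated in three replicate cultures.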

Ab-14 is the parent antibody, in scFv form: VH, then a (GGGGS)3 linker, then VL. The light chain is unchanged in all variants.
VH: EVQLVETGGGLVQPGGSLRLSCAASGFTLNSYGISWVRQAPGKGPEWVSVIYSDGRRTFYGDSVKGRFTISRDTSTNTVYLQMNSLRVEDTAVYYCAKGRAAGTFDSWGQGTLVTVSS
VL: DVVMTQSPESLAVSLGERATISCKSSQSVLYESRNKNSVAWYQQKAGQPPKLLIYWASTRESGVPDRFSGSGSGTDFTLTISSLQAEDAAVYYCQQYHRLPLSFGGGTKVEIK

Changes read parent residue, position, new residue, counted from the first residue of the VH shown.
Affinities are written as log10 Kd with Kd in nM; a lower number is a better binder.
Averages over replicates are reported, and they cover detected replicates only.
"nd" means that the variant was in the library but no mating with the target was seen in that replicate; the authors take this as a sign of poor binding, and no number exists.

| changes | log10 Kd (nM) by replicate | mean log10 Kd (nM) | signal with controls |
|---|---|---|---|
| I34F+R56D+R100F | 3.34 3.53 nd | 3.44 | 2/9 (3.58) |
| G33L+I34P+A101F | nd 3.62 4.45 | 4.03 | 2/9 (3.65) |
| I34H+V50H+D54M | nd nd nd | nd | 0/9 |
| Y52V+A101D+F105P | nd 4.66 5.66 | 5.16 | 2/9 (3.40) |
| N30Q+D54C+G103E | nd nd nd | nd | 0/9 |
| G33S+I34Y+T58W | nd 3.90 2.89 | 3.39 | 0/9 |
| T28A+Y52I+F105K | nd nd nd | nd | 0/9 |
| L29M+N30A+G55T | nd nd 4.31 | 4.31 | 0/9 |
| G33Q+D106T+S107D | nd nd nd | nd | 1/9 (3.99) |
| S31T+V50T+T104R | 2.39 2.34 2.45 | 2.39 | 2/9 (3.43) |
| S31A+G55S+D106P | 4.93 5.46 5.23 | 5.21 | 5/9 (4.62) |
| R56H+A101N+F105E | 5.05 nd nd | 5.05 | 1/9 (2.89) |
| I51C+D62F+A102P | nd 3.48 4.69 | 4.09 | 4/9 (4.22) |
| T58C+S63A+A102P | nd nd 4.27 | 4.27 | 2/9 (3.77) |
| S35M+R100Q | nd nd nd | nd | 1/9 (4.40) |
| Y60T+R100L+F105Y | nd nd 3.35 | 3.35 | 1/9 (3.49) |
| Y32F+F59C+S63Q | 3.77 nd nd | 3.77 | 0/9 |
| Y32D+T58G+S107H | nd nd nd | nd | 3/9 (4.25) |
| G26R+V50D+R100V | nd 4.82 nd | 4.82 | 2/9 (3.17) |
| I51M+S53V+Y60N | nd 2.49 nd | 2.49 | 1/9 (3.41) |
| N30I+S35Q+A102F | nd 3.09 nd | 3.09 | 2/9 (5.36) |
| D54F+R57S+F105R | nd nd nd | nd | 1/9 (2.57) |
| F59Q+V64Q+G103A | nd nd nd | nd | 1/9 (3.28) |
| V50R+Y52C+A101H | nd nd nd | nd | 3/9 (4.04) |
| N30I+A101Y+A102H | nd nd nd | nd | 0/9 |
| G26M+F27W+I34K | 5.01 nd nd | 5.01 | 2/9 (3.44) |
| D54E+D62K+D106P | nd nd nd | nd | 0/9 |
| T28H+V50Y+A102E | nd nd nd | nd | 0/9 |
| I51P+T58P+D62N | nd nd nd | nd | 0/9 |
| S31A+S53R+Y60I | nd nd 5.45 | 5.45 | 2/9 (3.88) |
| L29A+Y32F+D62P | 3.97 nd 4.34 | 4.16 | 3/9 (3.57) |
| S31I+V50G+R100A | nd nd nd | nd | 0/9 |
| G26M+L29N+A102I | nd nd nd | nd | 1/9 (2.90) |
| Y32Q+I51P+F59S | nd 3.74 nd | 3.74 | 4/9 (4.65) |
| G26F+N30P+F59H | nd nd nd | nd | 0/9 |
| D62F+A102M | nd nd nd | nd | 3/9 (3.59) |
| N30L+K65S+T104Y | 2.46 2.40 2.04 | 2.30 | 1/9 (3.29) |
| D54H+G61V+S63K | nd 3.90 nd | 3.90 | 1/9 (4.41) |

The closing 5 entries, repeated:

changes	log10 Kd (nM) by replicate	mean log10 Kd (nM)	signal with controls
Y32Q+I51P+F59S	nd 3.74 nd	3.74	4/9 (4.65)
G26F+N30P+F59H	nd nd nd	nd	0/9
D62F+A102M	nd nd nd	nd	3/9 (3.59)
N30L+K65S+T104Y	2.46 2.40 2.04	2.30	1/9 (3.29)
D54H+G61V+S63K	nd 3.90 nd	3.90	1/9 (4.41)

Empty control strains, which show no peptide, gave a signal in 15% of pairings with library AAYL49; the median was 4.06 and 95% of these signals were weaker than 2.83. No background was subtracted. The control count says in how many pairings with the empty strains this scFv gave a signal, with their mean in brackets.